This is an account of results in ChEMBL document CHEMBL5096162, “A review on ferulic acid and analogs based scaffolds for the management of Alzheimer's disease” (Eur J Med Chem, 2021).

The assay in a line: Antioxidant activity assessed as trolox equivalent of ORAC radical scavenging activity by ORAC-FL assay. Format: functional.

Regarding `COc1cc(/C=C/C(=O)O)ccc1O` [FERULATE], the Activity turned out to be 3.74 equiv.
